# Source: US20190269662A1, “SOLID COMPOSITIONS OF ACTIVES, PROCESSES FOR PREPARING SAME AND USES OF SUCH SOLID COMPOSITIONS” (The University of Liverpool, priority 2018, published 2019)
# Test: Maraviroc release rate by rapid equilibrium dialysis (RED), HPLC, transport buffer (Examples 8 and 14)
# Type: physicochemical
# Conditions: 8 kDa MWCO, 6 h, 37° C., 1 mg maraviroc
# Procedure: The rate of maraviroc release from the three maraviroc oil-blended SDN formulations found to most reliably and reproducibly produce nanodispersions in Example 7 was assessed across a size selective (8 kDa MWCO) membrane using RED plates and inserts. Control experiments were also run testing the rate of maraviroc release from aqueous maraviroc and a conventional maraviroc SDN (ACS_14-70 wt % maraviroc; 20 wt % PVA; and 10 wt % AOT as described in 2). Transport buffer (TB—consisting of Hanks balanced salt solution, 25 mM HEPES and 0.1% Bovine Serum Albumin (BSA), pH 7.4) was spiked with either DMSO dissolved maraviroc (<5% DMSO), a conventional maraviroc SDN or a maraviroc oil-blended SDN. A total of 1 mg maraviroc was added to the donor compartments for each preparation in 0.1 ml dH2O with an additional 0.5 ml of TB added to the donor chambers. One-millilitre of TB was subsequently added to the corresponding acceptor chambers. The RED plates were sealed using Parafilm to avoid evaporation and placed on an orbital shaker (Heidolph Rotomax 120; 100 rpm, 6 h, 37° C.). […] Collected samples were analysed via HPLC.
# Rapid equilibrium dialysis was performed as per Example 8. The compositions correspond to those found to form successful nanodispersions in Examples 9, 10 and 11. The data is also plotted as a bar graph in FIG. 16.
smiles,measurement,value
Cc1nnc(C(C)C)n1[C@@H]1C[C@H]2CC[C@@H](C1)N2CC[C@H](NC(=O)C1CCC(F)(F)CC1)c1ccccc1 [maraviroc],Rate of release,0.2491 h
